In BindingDB's records for doi:10.1021/jm0704200:

Key:
[1] = Agonist activity at human dopamine D2 receptor expressed in HEK293 cells by mitogenesis assay
[2] = Antagonist activity at human dopamine D2 receptor expressed in HEK293 cells by mitogenesis assay

EC50 [1]	IC50 [2]	Structure (SMILES)
114 nM	107 nM	COc1ccccc1N1CCN(CCCCNC(=O)c2ccc(-c3ccccn3)cc2)CC1 [N-(4-(4-(2-methoxyphenyl)piperazin-1-yl)butyl)-4-pyridin-2-ylbenzamide]
–	224 nM	COc1ccccc1N1CCN(CCCCNC(=O)c2ccc3c(c2)Cc2ccccc2-3)CC1 [N-(4-(4-(2-methoxyphenyl)piperazin-1-yl)butyl)-9H-fluorene-2-carboxamide]
